Test results taken from US12268667B2, “JAK1 pathway inhibitors for the treatment of prurigo nodularis” (Incyte Corporation, priority 2021, dated 2025).
pIC50: −log10 of the molar value.

Biological target: human JAK1 (a.a. 837-1142) (Homo sapiens, UniProt P23458)
Experiment: In vitro JAK kinase assay (HTRF), JAK1
Format: biochemical
Conditions: 1 mM ATP

pIC50: > 8.00
Compound: CN(C)Cc1cc(F)cc(OC2CCN(CC(CC#N)n3cc(-c4ncnc5[nH]ccc45)cn3)CC2)c1 (single isomer, unassigned) [Compound 14, 4-(4-{3-[(dimethylamino)methyl]-5-fluorophenoxy}piperidin-1-yl)-3-[4-(7H-pyrrolo[2,3-d]pyrimidin-4-yl)-1H-pyrazol-1-yl]butanenitrile]
